# The entries are a selection whose mix differs from that of the whole data set. Activity calls are given as the source filed them. Calls come from the whole dose curve; as a rule, active = well fitted curve in the direction sought with a large enough effect; inconclusive = small, poorly fitted or top-dose-only effect; inactive = flat fitted curve, though single readings scatter.
# By UniProt entry, the sequences of proteins in these tests, tags left out. Where a name states a change or a piece, a line headed by the entry shows the natural chain unless it says otherwise.
# UniProt Q9HC16: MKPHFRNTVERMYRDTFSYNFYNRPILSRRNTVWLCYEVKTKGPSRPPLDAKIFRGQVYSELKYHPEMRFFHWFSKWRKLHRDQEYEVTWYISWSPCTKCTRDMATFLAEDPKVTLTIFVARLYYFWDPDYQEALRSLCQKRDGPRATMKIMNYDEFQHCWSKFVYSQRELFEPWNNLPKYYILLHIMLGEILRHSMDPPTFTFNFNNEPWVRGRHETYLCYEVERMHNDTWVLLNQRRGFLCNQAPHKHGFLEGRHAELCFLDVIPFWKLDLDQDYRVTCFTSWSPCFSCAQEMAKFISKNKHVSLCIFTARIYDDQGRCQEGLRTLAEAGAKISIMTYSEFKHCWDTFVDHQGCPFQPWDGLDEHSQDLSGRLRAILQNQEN
# Target: DNA dC->dU-editing enzyme APOBEC-3G (Homo sapiens) (UniProt Q9HC16)
# Assay: qHTS for Inhibitors of Vif-A3G Interactions: qHTS;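 note: hits raise eYFP signal because A3G escapes Vif-driven loss; nearly all actives have a fitted effect of over 60% in size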
# Settings: HeLa A3G-eYFP + Vif (tagged APOBEC3G with the HIV-1 protein that degrades it), YFP fluorescence, overnight; at 46.1 µM (top of the series)
# Source text: The recent discovery and characterization of host restriction factors, which provide a potent defense to invading retroviruses, has provided new targets for antiviral drug development. APOBEC3G (A3G) and APOBEC3F (A3F) are potent cytidine deaminases that block HIV-1 replication; HIV-1 expresses the Vif protein, which counteracts A3G and A3F by binding to them and inducing their proteasomal degradation. The Vif-A3G and Vif-A3F interactions provide two potential targets for development of small molecules which can interfere with the ability of Vif to degrade A3G or A3F. […] To identify inhibitors that can interfere with Vif mediated degradation of A3G and A3F, we have developed Hela cell lines that stably express A3G or A3F tagged with eYFP at the C-terminal end (A3G-eYFP or A3F-eYFP, respectively) and Vif. In the absence of an inhibitor, Vif induces degradation of A3G-eYFP and A3F-eYFP, and the cells are not fluorescent. In the presence of an inhibitor, it is expected that Vif will be unable to degrade A3G-eYFP and/or A3F-eYFP, resulting in an increase in yellow fluorescence. In this assays Vif A3G was screened against the Molecular Library Small Molecule Repository (MLSMR). NIH Chemical Genomics Center [NCGC] NIH Molecular Libraries Probe Centers Network [MLPCN] MLPCN Grant: MH093245 Assay Submitter (PI): Vinay Pathak, National Cancer Institute
# 5 uL of 700 cells/well of A3G-YFP cells are dispensed into black, clear bottom plates. The plates are incubated overnight at 37 deg C. 23 nL of compounds are added by pintool. The plates are incubated overnight at 37 deg C and then read on the TTP Acumen (Ex 488/ Em 500-530).
# % is set by controls: 0 for no effect and ±100 for the full control effect.
row,Compound,"activity, negative = active"
1,COc1ccc(C2=NCC(CBr)S2)cc1 (centres undefined),inactive: -14%
2,CC(=O)N1C2C3N(C(C)=O)C1C1N(C(C)=O)C(C(N1C(C)=O)N3C(C)=O)N2C(C)=O,inactive: -0.808%
3,O=[N+]([O-])c1cccc2n[nH]nc12,inactive: 2.6%
4,Cc1ccc(NP(=O)(Oc2ccccc2)Oc2ccccc2)nc1,inactive: -0.651%
5,O=[N+]([O-])c1cc([N+](=O)[O-])c(CCNc2ccccc2)c([N+](=O)[O-])c1,inactive: -10.1%
6,CCc1nc2c(n1)c1c(non1O)c1c2no[n+]1[O-],inactive: -25.5%
7,Nc1ccc([As](=O)(O)c2ccc(N)cc2)cc1,inactive: -2.04%
8,C[N+]1=C2C=CC=CC=C2SC12C([N+](=O)[O-])=CC([N+](=O)[O-])=C[C-]2[N+](=O)[O-] (centres undefined),inactive: -15.9%
9,CCN(/C(=N/P(=O)(N1CCOCC1)N1CCOCC1)N1CCOCC1)c1ccc(OC)cc1,inactive: -4.19%
10,CC(C)=N/N=C(\N)N[N+](=O)[O-],inactive: 0.408%
11,CC(C)c1nc(Nc2ccccc2)n(P(=O)(N(C)C)N(C)C)n1,inactive: 3.7%
12,COc1cc([N+](=O)[O-])c([N+](=O)[O-])cc1OC,inactive: -1.12%
13,CN(C)C(=O)OCCc1n(C)cc[n+]1C,inactive: -0.294%
14,c1cc(-c2nn[nH]n2)ccc1-c1nn[nH]n1,inactive: -0.142%
15,CC1CCN(C(=O)Oc2c(Cl)cc(Cl)c3cccnc23)CC1,inactive: -4.34%
16,O=P(Nc1nccs1)(c1ccccc1)c1ccccc1,inactive: -2.46%
17,CC(C)C(=O)NC(Sc1ccccc1)C(Cl)(Cl)Cl (centres undefined),inactive: 0.471%
18,c1nnnn1CCn1cnnn1,inactive: 0.294%
19,COc1cccc([N+](=O)[O-])c1[N+](=O)[O-],inactive: -11.6%
20,Nc1ccc(CCCCOc2ccccc2)cc1,inactive: -3.33%

row,Compound,"activity, negative = active"
1,COc1ccc(N)c([N+](=O)[O-])c1[N+](=O)[O-],inactive: -6.06%
2,CN(C)C1(CNC(=O)c2ccc(Cl)c(S(N)(=O)=O)c2)CCCCC1,inactive: 1.09%
3,O=P(Nc1ccccn1)(c1ccc(Br)cc1)c1ccc(Br)cc1,inactive: -10.4%
4,O=P(Nc1nc2ccccc2s1)(c1ccccc1)c1ccccc1,inactive: 3.51%
5,C[C@H]1OP(=O)(Oc2ccccc2)[C@H](O)[C@H](O)[C@H]1N=[N+]=[N-] (some centres undefined),inactive: 4.26%
6,O=[N+]([O-])c1ncn(CCn2cnc([N+](=O)[O-])n2)n1,inactive: -0.764%
7,CC(=O)NC(SC(=S)N(C)C)C(Cl)(Cl)Cl (centres undefined),inactive: 1.1%
8,O=[N+]([O-])c1ccc(O)c(/C=N/Nc2ccc([N+](=O)[O-])cc2[N+](=O)[O-])c1,inactive: -1.09%
9,O=[As](O)(c1ccccc1)c1ccc(O)cc1,inactive: -0.0982%
10,Nc1ccc([As](=O)(O)c2ccc([N+](=O)[O-])cc2)cc1,inactive: -0.346%
11,C(Cc1nn[nH]n1)Cc1nn[nH]n1,inactive: -0.444%
12,O=C(OC1CN2CCC1CC2)c1cccc(Cl)c1 (centres undefined),inactive: 0.769%
13,O=C(NC1CCS(=O)(=O)C1)NP(=S)(Oc1ccccc1)Oc1ccccc1 (centres undefined),inactive: -1.06%
14,CCNC(=S)/N=C(\N)N[N+](=O)[O-],inactive: -0.0422%
15,c1ccc(-c2nn[nH]n2)c(-c2nn[nH]n2)c1,inactive: 1.27%
16,O=[N+]([O-])c1cc([N+](=O)[O-])c2nc[nH]c2c1,inactive: 2.47%
17,Cc1ccc(NP(=O)(Oc2cccc(C)c2)Oc2cccc(C)c2)nc1,inactive: -2.97%
18,O=P1(N(CCCl)CCCl)OCCC2CCCCN21 (centres undefined),inactive: -0.61%
19,COC(=O)c1cc2c(s1)N=C(c1ccccc1)N(C)P2(=O)N1CCOCC1 (centres undefined),inactive: -3.92%
20,Cc1ccc(OP(=O)(Nc2ccccn2)Oc2ccc(C)cc2)cc1,inactive: -2.67%

row,Compound,"activity, negative = active"
1,CC(=O)NC(SC(=S)N(CC(C)C)CC(C)C)C(Cl)(Cl)Cl (centres undefined),inactive: -3.46%
2,O=C(OC1CN2CCC1CC2)c1ccccc1 (centres undefined),inactive: 0.943%
3,CCC(=O)N1C2C3N(C(=O)CC)C1C1N(C(=O)CC)C(C(N1C(=O)CC)N3C(=O)CC)N2C(=O)CC,inactive: -0.643%
4,Cc1ccccc1OP(=O)(Nc1ccccn1)Oc1ccccc1C,inactive: -20%
5,CC(NC(=O)COC(=O)C(O)(c1ccccc1)c1ccccc1)c1ccccc1 (centres undefined),inactive: -2.59%
6,CN(C)C(=O)Oc1noc2ccccc12,inactive: 1.77%
7,O=c1c2cc([N+](=O)[O-])ccc2[nH]c2c([N+](=O)[O-])cc([N+](=O)[O-])cc12,inactive: 1.47%
8,O=P1(Nc2nc3ccc(Cl)cc3s2)COc2ccccc2O1 (centres undefined),inactive: -7.67%
9,CCOc1ccc(C2=NCC(CBr)S2)cc1 (centres undefined),inactive: 3.47%
10,CCc1cc(O)c([N+](=O)[O-])c(C)c1[N+](=O)[O-],inactive: 2.39%
11,CC(C)(C)C(=O)NC(Sc1ccccc1)C(Cl)(Cl)Cl (centres undefined),inactive: -7.48%
12,N#C/C(=C\c1ccc(N(CCBr)CCBr)cc1)C(N)=O,inactive: -5.05%
13,CC(=O)c1ccc(N2CC2c2ccncc2)cc1 (centres undefined),inactive: -0.382%
14,COC(=O)C1(C)COP(=O)(NCc2ccccc2)OC1 (centres undefined),inactive: 1.34%
15,Cc1ccccc1CN(C)C(=O)COC(=O)C(O)(c1ccccc1)c1ccccc1,inactive: 2.09%
16,C[C@@H]1C=CCP(=O)(Oc2ccccc2)O1 (some centres undefined),inactive: 5.51%
17,C[C@H]1OP(=O)(Oc2ccccc2)C[C@@H]2O[C@@H]21 (some centres undefined),inactive: -1.62%
18,CC(=O)Nc1ccc([As](=O)(O)O)c(O)c1,inactive: 3.04%
19,CC(=O)Nc1ccc(Oc2c([N+](=O)[O-])cc([N+](=O)[O-])cc2[N+](=O)[O-])cc1,inactive: -0.712%
